According to ChEMBL document CHEMBL5634115, “Exploring novel anticancer pyrazole benzenesulfonamides featuring tail approach strategy as carbonic anhydrase inhibitors” (Eur J Med Chem, 2023):

Biological target: Carbonic anhydrase 9 (Homo sapiens, UniProt Q16790)

pKi: 8.64
SMILES: NNC(=O)c1cc(-c2ccc([N+](=O)[O-])cc2)n(-c2ccc(S(N)(=O)=O)cc2)n1

pKi: −log10 of the molar value.
